Assay: Displacement of [3H]-Nisoxetine from NET in Sprague-Dawley rat frontal cortex membrane after 180 mins by microbeta scintillation counting method
Assay type: cell membranes
Outline: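 Male Sprague-Dawley rat frontal cortex membranes in 50 mM Tris, 300 mM NaCl, 5 mM KCl pH 7.4, 8.0 mg/tube wet weight; [3H]nisoxetine 0.5 nM final; 180 min at 0–4 °C; nonspecific 10 μM desipramine.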

[O-][S+](CCN1CCN(CC(O)Cc2ccccc2)CC1)C(c1ccc(F)cc1)c1ccc(F)cc1 (configuration not stated)
Ki: 8.24 µM

CC(O)CN1CCN(CCSC(c2ccc(F)cc2)c2ccc(F)cc2)CC1 (configuration not stated)
Ki: 11.8 µM
